Drawing on PubChem BioAssay AID1778 (Sanford-Burnham Center for Chemical Genomics, 2009), this text covers inhibition for 92 molecules.

Amino acid sequences for entries named in this document (tags omitted). A change or cut given only in a name is not applied to a line headed by its entry.
UniProt P41145: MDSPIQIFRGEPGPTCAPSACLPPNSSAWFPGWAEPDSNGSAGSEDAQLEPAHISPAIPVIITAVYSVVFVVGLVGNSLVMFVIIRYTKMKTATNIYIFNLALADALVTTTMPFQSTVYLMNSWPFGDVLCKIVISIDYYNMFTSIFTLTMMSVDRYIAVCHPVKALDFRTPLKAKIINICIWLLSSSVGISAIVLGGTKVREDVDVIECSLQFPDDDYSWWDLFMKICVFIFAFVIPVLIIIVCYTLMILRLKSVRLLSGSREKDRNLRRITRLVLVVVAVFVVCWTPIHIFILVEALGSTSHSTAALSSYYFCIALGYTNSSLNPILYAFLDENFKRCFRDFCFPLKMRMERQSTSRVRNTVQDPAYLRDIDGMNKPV

Values joined by “and” are separate entries in the source; they are usually repeats but may differ in a detail not shown here. Equal entries are not always repeated. The list shows a part of the results. Measured potencies and affinities stand elsewhere. Active and inactive are the calls of the source. Cut-off read from the data, not from the text of the source: active = inhibition above about 50%; inactive = the rest.

In this assay the target is Kappa-type opioid receptor (Homo sapiens) (UniProt P41145). Kind of assay: KOR antagonists, beta-arrestin recruitment, cell-based, luminescence, uHTS (AID 1778). The settings on record: antagonist mode, at 10 µM, stronger effect = higher value.
`Cc1cnc(NC(=O)Cn2cnc3c2c(=O)n(C)c(=O)n3C)s1`: the inhibition is inactive: -18.3%.
The value for `CC(C)(C)NC(=O)Cn1c(SCC(=O)NC2CC2)nc2ccccc21` was inactive: 3.2%.
Under `N=c1n(CCN2CCCCC2)c2ccccc2n1CC(O)c1ccc(Cl)c(Cl)c1` (configuration not stated) stands inactive: -68.4%; under `CCN(CC)c1ccc(CNc2nc3ccccc3n2CCN2CCOCC2)cc1`, inactive: -23.7%; under `Cc1ccc(S(=O)(=O)Nc2ccc(Cl)cc2)cc1NC(=O)Cn1cnc2c1c(=O)n(C)c(=O)n2C`, inactive: -16.4%.
In the case of `CC(C)NC(=O)CSc1nc2ccccc2n1CC(=O)N(C(C)C)C(C)C`, the inhibition was inactive: 25.4%.
As to `Cc1ccc2c(c1)C1CN(C)CCC1N2C(=O)c1ccco1` (configuration not stated), the inhibition is inactive: -30.6%.
For the molecule `O=C1Nc2ccccc2C12Nc1ccccc1-c1nc3ccccc3n12` (configuration not stated), the inhibition is inactive: 11.7%.
For the molecule `CC(NC(=O)[C@H](C)NC(=O)N1CCn2c1nc1ccccc12)c1ccccc1` (some centres not stated), the inhibition is inactive: -12.8%.
On to `Cc1ccccc1NC(=O)Cn1c(=O)n(C)c2ccccc21`, for which the inhibition is inactive: -31.3%.
In the case of `Cc1ccccc1OCC(O)Cn1c(=N)n(CCN2CCOCC2)c2ccccc21` (configuration not stated), the inhibition is inactive: 2% and inactive: -10.9%.
The value for `CCN(CC)CCn1c(NCc2ccc3c(c2)OCO3)nc2ccccc21` was inactive: -5.4%; that for `O=C(NCc1ccccc1)N1CCn2c(nc3ccccc32)C1` was inactive: 15.4%; that for `N=c1n(CCCOc2ccc(Br)cc2)c2ccccc2n1CC(N)=O` was inactive: 8.5%.
On to `COc1ccc(NC(=O)Cn2c(NCC(C)O)nc3ccccc32)cc1Cl` (configuration not stated), for which the inhibition is inactive: -15.8%.
`O=C(Cn1c2[n+](c3ccc(C(F)(F)F)cc31)CCCCC2)Nc1ccc(Br)cc1`: the inhibition was inactive: 0.8%.
Consider `CC(O)c1nc2ccccc2n1CC(=O)Nc1ccc(F)cc1Cl` (configuration not stated), for which the inhibition is inactive: -14.4%.
Take `CN1CCC(N(C)c2nc(-c3ccc([N+](=O)[O-])cc3)nc3ccccc23)CC1`: the inhibition is inactive: 20.6%.
Under `O=C(Nc1ccc(F)cc1)N1CCn2c(nc3ccccc32)C1` stands inactive: -13.9%; under `C[C@H](NC(=O)N1CCn2c1nc1ccccc12)C(=O)NCc1ccco1`, inactive: -20.5%.
The value for `O=[As](O)(c1ccc(O)cc1)c1ccccc1O` was inactive: 2.3%; that for `COc1ccc(NC(=O)N2CCn3c2nc2ccccc23)cc1` was inactive: 7%.
`C[As](=O)(O)c1cccc(C(=O)O)c1`: the inhibition was inactive: -6.4%.
In the case of `CN1CCN(c2nc3c(c(=O)[nH]c(=O)n3C)n2CC(N)=O)CC1`, the inhibition was inactive: -7.7%.
With `CSc1nc2ccccc2n1CC(=O)Nc1c(C)cccc1C`, the inhibition is inactive: 9.6%.
The value for `Cc1ccc(SCc2nc3ccccc3n2CC(=O)Nc2c(C)cccc2C)cc1` was inactive: 8.2%; that for `Cn1c(=O)c2c(ncn2CC(=O)N/N=C/C(Br)=C/c2ccccc2)n(C)c1=O` was inactive: 10.2%; that for `Cc1ccc(S(=O)(=O)Nc2ccc3c(c2)nc2n3CCN(Cc3ccccc3)C2)cc1` was inactive: 47.2%.
For `Cc1ccc(OP(=O)(Nc2ccc([N+](=O)[O-])cn2)Oc2ccc(C)cc2)cc1`, the inhibition was inactive: 24.2%.
Take `Fc1ccc2c(c1)nnn2C1CCN(Cc2ccccc2)CC1`: the inhibition is inactive: 1.9%.
The value for `Brc1ccc(CNc2nc3ccccc3n2CCN2CCCCC2)cc1` was inactive: 17.7%.
As for `COc1ccc(/C=N/NC(=O)Cn2c(Cc3ccc(OC)c(OC)c3)nc3ccccc32)cc1`, the inhibition is inactive: 3.9%.
For the molecule `COCCn1c(=O)c2c(nc3n2CCN3c2ccc(C)cc2)n(C)c1=O`, the inhibition was inactive: 14.1%.
Regarding `CC(Cc1ccc(O)cc1)NCC(O)c1cc(O)cc(O)c1` (configuration not stated), the inhibition was inactive: 0.7%.
For `Cc1ccc2nc3c(c(C)c2c1)CC(C(Cl)Cl)S3` (configuration not stated), the inhibition was inactive: 6.9%.
Under `COc1ccc(CCNC(=O)[C@H](CCSC)NC(=O)N2CCn3c2nc2ccccc23)cc1OC` stands inactive: -5.9%; under `O=C(Cn1c(C(F)(F)F)nc2ccccc21)N/N=C/c1ccco1`, inactive: 1.7%; under `CCOC(=O)Cn1c(=O)c2c(nc3n2CCN3Cc2ccccc2)n(C)c1=O`, inactive: -6.7%.
`CN(C)CCn1cnc2c1c(=O)n(C)c(=O)n2C`: the inhibition was inactive: -9.5%.
As for `Cn1c(=O)c2c(ncn2CC(=O)N2CCN(c3cccc(Cl)c3)CC2)n(C)c1=O`, the inhibition was inactive: -3.5%.
As for `Cc1ccc2c(c1)C1CN(C)CCC1N2C(=O)CCCN1C(=O)c2cccc3cccc(c23)C1=O` (configuration not stated), the inhibition is inactive: 17.7%.
The value for `CC(C)NC(=O)Cn1c(SCC(=O)c2ccc(F)cc2)nc2ccccc21` was inactive: -13.6%.
In the case of `CCC(=O)Nc1nc2ccccc2n1CCN(CC)CC`, the inhibition was inactive: 16.8%.
The value for `COc1ccccc1NC(=O)N1CCn2c(nc3ccccc32)C1` was inactive: 3.6%.
On to `Cc1nc2ccccc2n1CC(=O)NCCN1CCCC1`, for which the inhibition is inactive: 7.9%.
The value for `CC1(C)c2ccccc2N2CCC(=O)NC21/C=C/c1ccco1` (configuration not stated) was inactive: -22.1%; that for `Cc1ccsc1/C=N/NC(=O)Cn1cnc2ccccc21` was inactive: 5.3%.
`ClCCSc1nnc(-c2cccnc2)o1`: the inhibition is inactive: 15.2%.
The value for `Oc1ccccc1CNc1nc2ccccc2n1CCN1CCCCC1` was inactive: -27.8%; that for `Cc1nc2ccccc2n1C1CCN(Cc2nnnn2CCc2ccccc2)CC1` was inactive: -1.3%; that for `CC(C)c1ccc(OP(=O)(Nc2ccccn2)Oc2ccccc2F)cc1` (configuration not stated) was inactive: 26.3%.
In the case of `c1csc(CNc2nc3ccccc3n2CCN2CCOCC2)c1`, the inhibition was inactive: -50.3%.
Turning to `CCC(C(=O)NC1CCCCC1)n1c(SCc2ccccc2F)nc2ccncc21` (configuration not stated), the inhibition was inactive: 14.6%.
On to `C=C(C)Cn1c(=O)c2c(nc3n2CCN3c2cccc(Cl)c2C)n(C)c1=O`, for which the inhibition was inactive: 2%.
`CCN(CC)C(=S)SC(NC=O)C(Cl)(Cl)Cl` (configuration not stated): the inhibition is inactive: 14.4%.
As to `O=C(Nc1nc2ccccc2n1CCN1CCOCC1)c1cn(-c2ccccc2)nc1-c1ccccc1`, the inhibition was inactive: -30.6%.
For the molecule `CC(C)NC(=O)NP(=O)(Oc1ccccc1)Oc1ccccc1`, the inhibition was inactive: -22.9%.
Under `O=C(CCNC(=O)N1CCn2c1nc1ccccc12)NCc1ccc(F)cc1` stands inactive: -22.4%; under `CC1c2nc3ccccc3n2C(CC(=O)NCCCN2CCOCC2)C(=O)N1Cc1ccccc1` (configuration not stated), inactive: 1.6%.
Turning to `N=c1n(CCN2CCCCC2)c2ccccc2n1CC(=O)c1ccc(Cl)c(Cl)c1`, the inhibition is inactive: -16.8%.
Consider `COc1ccc(CCNC(=O)[C@@H](NC(=O)N2CCn3c2nc2ccccc23)C(C)C)cc1OC`, for which the inhibition is inactive: -29.5%.
Turning to `O=C(Cn1c(-c2ccccn2)nc2ccccc21)NCCN1CCOCC1`, the inhibition is inactive: -5.4%.
As for `O=[N+]([O-])c1cc([N+](=O)[O-])c(-c2ccn[nH]2)s1`, the inhibition is inactive: 19.8%.
The value for `Cn1c(=O)c2c(ncn2CC(=O)Nc2nc(-c3ccccc3Cl)cs2)n(C)c1=O` was inactive: -11.2%; that for `CCC(=O)Nc1cccc(C(=O)/C=C/c2ccc(F)cc2)c1` was inactive: -21.6%.
Under `Cc1ccc(NC(=O)Cn2cnc3c(=O)n(C)c(=O)n(C)c32)c(C)c1` stands inactive: 26.8%; under `O=C(Cn1c(C(F)(F)F)nc2ccccc21)N1CCCC1`, inactive: 11.8%.
With `Cc1ccc(Cn2nnnc2CN2CCC(n3nnc4cc(C)ccc43)CC2)cc1`, the inhibition was inactive: 16%.
Consider `Cc1cccc(CSc2nc3ccncc3n2CC(=O)Nc2cc(C)cc(C)c2)c1`, for which the inhibition is inactive: -7.4%.
For the molecule `Cn1c(=O)c2c(nc(CN3CCC(Cc4ccccc4)CC3)n2CCN2CCOCC2)n(C)c1=O`, the inhibition was inactive: -19.7%.
On to `CC1CCN(C(=O)Cn2cnc3c2c(=O)n(C)c(=O)n3C)c2ccccc2S1` (configuration not stated), for which the inhibition is inactive: -41.4%.
`C[C@H](NC(=O)N1CCn2c1nc1ccccc12)C(=O)NC1CC1`: the inhibition was inactive: -8.8%.
Turning to `O=C(Nc1nc2ccccc2n1CCN1CCOCC1)c1ccc(Cn2cc([N+](=O)[O-])cn2)o1`, the inhibition is inactive: -18.7%.
Take `N#Cc1ccc(NC(=O)Cn2c3[n+](c4ccc(C(F)(F)F)cc42)CCCCC3)cc1`: the inhibition is inactive: 8.9%.
As to `CCC(C)[C@H](NC(=O)N1CCn2c1nc1ccccc12)C(=O)NCCc1ccc(OC)c(OC)c1` (some centres not stated), the inhibition is inactive: -23.9%.
In the case of `Cn1c(=O)n(CC(=O)Nc2ccc(F)cc2)c2ccccc21`, the inhibition is inactive: 28.9%.
`CCOC(=O)c1cccc(NC(=O)Cn2c(CC(=O)N3CCCC3)nc3ccccc32)c1`: the inhibition is inactive: -19.9%.
For the molecule `CC(C)N(C(=O)Cn1c(SCC(=O)N2CCN(c3ccccc3)CC2)nc2ccccc21)C(C)C`, the inhibition was inactive: -18.7%.
With `C/C(=N\NC(=O)Cn1c(-c2ccccn2)nc2ccccc21)c1cccc(O)c1`, the inhibition was inactive: -10.5%.
As for `CCN1CCC(Nc2ccnc3cc(Cl)ccc23)CC1`, the inhibition is inactive: 13.4%.
For `CCOP1(=S)c2c(C)nn(CCC#N)c2N=C(c2ccccc2F)N1C` (configuration not stated), the inhibition is inactive: -18.3%.
For the molecule `O=P(Nc1nccs1)(c1ccccc1)c1nc2ccccc2s1` (configuration not stated), the inhibition was inactive: 7%.
Regarding `CCN(CC)CCn1c(C)nc2ccccc21`, the inhibition is inactive: 7.9%.
On to `Cn1c(=O)c2c(ncn2CC(=O)N2CCN(S(=O)(=O)c3ccc(Cl)cc3)CC2)n(C)c1=O`, for which the inhibition is inactive: -13.1%.
In the case of `O=P(Nc1nccs1)(Oc1ccccc1)Oc1ccccc1`, the inhibition is inactive: 18.7%.
On to `Cc1ccccc1NC(=O)Cn1c(NCC(C)O)nc2ccccc21` (configuration not stated), for which the inhibition was inactive: 15.6%.
Under `CCc1nc2ccccc2n1CC(=O)Nc1cc(C)on1` stands inactive: -13%; under `CC(C)c1ccc(NC(=O)C2CC(=O)Nc3nc4ccccc4n32)cc1` (configuration not stated), inactive: -6.6%; under `CCN(Cc1ccccc1)C(=O)Cn1cnc2c1c(=O)n(C)c(=O)n2C`, inactive: -22.9%.
Take `CCN(CC)CCn1c(=N)n(CC(O)COc2ccccc2)c2ccccc21` (configuration not stated): the inhibition is inactive: -0.2%.
With `C[C@H](NC(=O)N1CCn2c1nc1ccccc12)C(=O)NCc1ccc2c(c1)OCO2`, the inhibition was inactive: -11%.
`CS(=O)(=O)c1cc([N+](=O)[O-])c2no[n+]([O-])c2c1`: the inhibition is inactive: 5%.
